## Binding of CDR-mutated scFvs to a peptide of the spike HR2 region

All variants were tested on one target, the spike HR2 peptide PDVDLGDISGINAS (SARS-CoV-2).

Parent: Ab-14, a human scFv built as VH, three GGGGS repeats, VL. Only the CDRs of the light chain vary.
VH: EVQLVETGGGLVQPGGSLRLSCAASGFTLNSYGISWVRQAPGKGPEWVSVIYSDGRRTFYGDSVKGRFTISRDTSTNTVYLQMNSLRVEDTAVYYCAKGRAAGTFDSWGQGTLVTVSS
VL: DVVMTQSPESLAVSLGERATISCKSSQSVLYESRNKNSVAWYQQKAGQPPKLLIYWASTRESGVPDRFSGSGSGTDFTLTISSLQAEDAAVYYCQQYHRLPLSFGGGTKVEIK

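The parent was found by panning a naive human phage display library on the peptide. Designed CDR sequences, proposed from the first random library and measured here. Their group label is 14L_En_Gibbs (En: ensemble of fine-tuned language models; Gibbs: Gibbs sampling). Affinity was read by AlphaSeq, a pooled yeast mating assay with surface-displayed partners. Binding brings cells together so that they mate, and sequencing counts the barcode pairs among the diploids. A regression on co-assayed BCL2-family reference pairs converts the normalised counts of each replicate to an apparent Kd. There are six technical replicates.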

Each variant is given by its three light chain CDRs, as the data file delimits them; those of the parent are KSSQSVLYESRNKNSVA, WASTRES, QQYHRLPLS.
Numbers give log10(Kd / nM), so 0 is 1 nM and 3 is 1 µM. Smaller is tighter.
"nd" means that the variant was in the library but no mating with the target was seen in that replicate; the authors take this as a sign of poor binding, and no number exists.

| CDR-L1 | CDR-L2 | CDR-L3 | log10 Kd (nM) by replicate | signal with controls |
|---|---|---|---|---|
| HVPNYTENFMSAAQNIA | DQSAKTS | QQYDRLPLA | 0.48 / 0.34 / 0.20 / -0.07 / 0.29 / 0.46 | 0/18 |
| RIGITSDYYMENRSSIA | EMTVKEM | QQYQKLPLA | 1.51 / 1.62 / 1.99 / 1.23 / 1.92 / 2.01 | 0/18 |
| KLQQESDNMNSMQNSVA | EQSMVQY | QHYWRLPLT | nd / nd / nd / nd / nd / nd | 0/18 |
| HVMHEQLDYKNYENNIA | HESQRLY | QQYSQLPLT | nd / 1.83 / 2.23 / 2.77 / 2.29 / nd | 0/18 |
| MFLKEDFQELAAKNAIA | NAREAVT | QHYFRLPLV | 0.87 / 0.55 / 0.72 / 0.49 / 0.91 / 0.76 | 0/18 |
| KLSLGLGVQKQVYYNIA | NESLKTA | QHYDRLPLT | nd / nd / nd / nd / nd / nd | 0/18 |
| KLTHVTFVLDRQKYSIA | DSERKAE | QQYNRLPLT | nd / nd / nd / nd / nd / nd | 1/18 (0.81) |
| AFTESIFYGQRDSNAIA | HADVVEK | QQYFRFPLA | 2.02 / 1.57 / 1.26 / 2.27 / 1.45 / 1.47 | 1/18 (1.78) |
| QLQQVQQEDTIGEYSVA | HAEVSGR | QQYSQLPLI | nd / nd / nd / nd / 3.06 / nd | 0/18 |
| QLEQLVFPMGKDWHSIA | NATTLLA | QQYYYLPLM | nd / 2.50 / 2.72 / 3.24 / 2.16 / 2.50 | 0/18 |
| QLELVQSNDTILENSVA | HAEVSGR | QQYSQLPLI | nd / nd / nd / nd / nd / nd | 0/18 |
| HLTEQNFDGERRAYNIA | AGVKHSY | QQYHRLPLM | 1.89 / 1.26 / 2.30 / 1.91 / 0.67 / 1.48 | 1/18 (2.43) |
| NLSGHQYNNSQYKNSIA | EDNNIRL | QQYHRLPFT | nd / 2.55 / 2.36 / 2.13 / nd / 1.83 | 2/18 (2.99) |
| NLKEMEGTNQTKHGNIA | SVDQRMS | QQYQRLPLI | 0.91 / 0.51 / 0.43 / 0.46 / 0.55 / 0.82 | 1/18 (2.85) |
| ALAYTLHQNESNQSNIA | QVQEREV | QQYYRLPLG | nd / nd / nd / 2.34 / nd / nd | 0/18 |
| QLQWYNTYATASASNIA | DGAQRAN | QQYMRLPLM | -0.20 / -0.26 / -0.38 / -0.64 / -0.15 / -0.30 | 4/18 (2.08) |
| RISIPMDYYMENRSSIA | EMTVKEM | QQYQKLPLA | 2.12 / 1.94 / 2.41 / 2.53 / nd / nd | 0/18 |
| KINERMRMGENQQHSIA | NAAEIVK | QQYHNLPLG | 1.24 / 0.68 / 0.82 / 0.84 / 0.70 / 1.03 | 1/18 (2.40) |
| ALSDWEWAGEENINAVA | DRSALEW | QQYDRLPLS | 1.49 / 1.25 / 1.17 / 1.56 / 1.55 / 1.12 | 0/18 |
| KIYYHGVDYLNEQNSIA | GQDIRQF | QQYYRLPLV | 0.32 / 1.54 / 0.60 / 0.12 / 0.48 / 0.30 | 0/18 |
| KLTAAQNDYGQNRSAIA | EEVNSLQ | QQYHHLPLS | nd / nd / nd / nd / 3.03 / 2.98 | 3/18 (3.09) |
| HLMSLNLHYTGTLNSVA | EAEERQE | QHYARLPLM | 1.04 / 1.72 / 1.02 / 1.01 / 1.29 / 1.25 | 4/18 (2.95) |
| NMKVGLNFEDIQHQAIA | EVMERES | QQYARLPLT | 2.06 / 0.86 / 0.73 / nd / 1.42 / 1.20 | 1/18 (1.45) |
| NFSEQYKTDREQQYSIA | GMDIREK | QQYGRLPLT | 2.47 / 2.66 / 1.45 / nd / 1.36 / 1.69 | 0/18 |
| KLDLFIPSQKEWDASIA | GATLRPT | QDYARLPLS | nd / 2.03 / nd / 2.58 / nd / 1.83 | 1/18 (2.44) |
| KINERLRSGENEQHSIA | NATEIVH | QQYHNLPLG | 2.13 / 1.01 / 0.50 / 1.62 / 0.95 / 2.03 | 0/18 |
| HFAYPLQSLYVSKQNVA | NASTVMT | QHYNRLPLS | 0.96 / 0.62 / 0.67 / 0.63 / 1.04 / 0.90 | 0/18 |
| RIEILGDEVTQHYSNVA | EQHVTDM | QQYFRLPLS | 0.93 / 2.57 / nd / 2.40 / 1.34 / 1.50 | 1/18 (1.32) |
| VLPDNLLMKESQYHSIA | NGDDRME | QQYMRLPLM | -0.09 / -0.12 / 0.00 / -0.07 / -0.10 / 0.07 | 3/18 (3.47) |
| YMSGQIDGGWNQQEAIA | EVTYKED | QQYYQLPLS | nd / nd / nd / nd / nd / nd | 1/18 (2.74) |
| FMEMDFDGNDVNRNSIA | SSEAVTR | QHYARLPLS | nd / nd / nd / nd / nd / nd | 2/18 (1.23) |
| NLTTGYRQGALNTDSVA | HGNMRCA | QMYYRLPLS | 0.67 / 0.66 / 0.37 / 0.29 / 0.45 / 0.65 | 1/18 (4.22) |
| FITYQQDQTGLQRNAIA | QVNLKEQ | QQYGRLPFA | 1.58 / nd / 1.98 / 1.83 / 1.97 / 1.57 | 0/18 |
| AISMHAFYGQRDENGIA | GADVRAK | QQYYRLPLT | 0.60 / 0.71 / 0.57 / 0.47 / 0.39 / 0.34 | 2/18 (3.02) |
| KMMLSLGESKQSERNVA | NMRVSVA | QQYDHLPLT | 1.07 / 0.94 / 0.71 / 1.52 / 1.60 / 1.56 | 0/18 |

4 of these entries, quoted again:

{"CDR-L1": "KLQQESDNMNSMQNSVA", "CDR-L2": "EQSMVQY", "CDR-L3": "QHYWRLPLT", "log10 Kd (nM) by replicate": "nd / nd / nd / nd / nd / nd", "signal with controls": "0/18"}
{"CDR-L1": "KMMLSLGESKQSERNVA", "CDR-L2": "NMRVSVA", "CDR-L3": "QQYDHLPLT", "log10 Kd (nM) by replicate": "1.07 / 0.94 / 0.71 / 1.52 / 1.60 / 1.56", "signal with controls": "0/18"}
{"CDR-L1": "KLSLGLGVQKQVYYNIA", "CDR-L2": "NESLKTA", "CDR-L3": "QHYDRLPLT", "log10 Kd (nM) by replicate": "nd / nd / nd / nd / nd / nd", "signal with controls": "0/18"}
{"CDR-L1": "MFLKEDFQELAAKNAIA", "CDR-L2": "NAREAVT", "CDR-L3": "QHYFRLPLV", "log10 Kd (nM) by replicate": "0.87 / 0.55 / 0.72 / 0.49 / 0.91 / 0.76", "signal with controls": "0/18"}

Nonspecific signal, from three strains lacking the peptide, appeared in 4% of pairings of all light chain designs, centred on 2.64 (5% of these signals below 1.59); values are not corrected for it. For each scFv, signals with the empty controls are counted beside the result, with their mean in brackets.
The authors' rule: three or more of the six replicates give a measured affinity, fewer mean a poor binder.
The range of this assay differs from that of the first round, and the authors advise against merging the two.
Of ten entries with the parent sequence, four were seen in most replicates (averages 0.34 to 2.37), three in one and three in none, so single entries are noisy.

From the AlphaSeq antibody data of Li et al. 2023 (doi:10.1038/s41467-023-39022-2), copy in the FLAb collection.